# Test system: Rhodococcus erythropolis strain HL PM-1
# Settings: control cells grown in the absence of DNP; substance added to 0.55 mM; 30° C.; FIG. 1
substance,measurement,value
acetate,respiration (rate of O2 consumption) upon addition of the substance,did
